Laboratory results taken from publication PMC3179684 (Toxicological Sciences, 2011).

Tests used:
[1] = biological target: T1, epoxide hydrolase (EH) (Homo sapiens, UniProt P07099); assay: EO elimination in human liver microsomes; conditions: pooled native human liver microsomes
T1 sequence (P07099 1-455): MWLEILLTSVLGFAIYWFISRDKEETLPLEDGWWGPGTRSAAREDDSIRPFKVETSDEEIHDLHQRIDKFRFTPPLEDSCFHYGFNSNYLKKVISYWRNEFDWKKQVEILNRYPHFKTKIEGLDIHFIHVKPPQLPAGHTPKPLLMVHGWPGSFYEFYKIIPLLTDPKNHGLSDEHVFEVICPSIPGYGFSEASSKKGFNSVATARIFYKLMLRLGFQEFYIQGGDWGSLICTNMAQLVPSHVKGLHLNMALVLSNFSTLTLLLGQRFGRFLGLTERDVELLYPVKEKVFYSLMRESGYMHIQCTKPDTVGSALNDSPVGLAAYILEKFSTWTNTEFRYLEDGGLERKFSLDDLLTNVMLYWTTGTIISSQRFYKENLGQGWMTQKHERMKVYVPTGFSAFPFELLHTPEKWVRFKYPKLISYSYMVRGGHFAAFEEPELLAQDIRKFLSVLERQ

[2] = system: GSH levels in the livers; conditions: B6C3F1 mice exposed for 4 h to 300 and 400 ppm EO; ref Brown et al., 1998; cited from earlier work

## C1CO1 [EO, ethylene oxide]
[1]
  ratio of Vmax to Km of EH-catalyzed EO elimination: 1.13 μl/min/mg protein
[2]
  GSH levels in the livers: less than 22 % of the control value
